In the library only some 16% were active in any assay of this set; here they are far more common.
uPA generation: blocks generation of uPA at the cell surface. cell surface uPA generation assay, qHTS. Potency, µM (doses to about 38.3 µM), for the others: at the top dose activity change, negative = inhibition, actives largely listed as inhibitors. hit rate 0.31% among 330,000; active = well fitted inhibition curve with a large enough effect; inconclusive = small, poorly fitted or top-dose-only effect; inactive = no such curve, though single readings can be large or run the other way; tested in mouse RAW 264.7 cells; note: potency is the fitted concentration of half-maximal effect; % is set by controls: 0 for no effect and ±100 for the full control effect; nearly all actives have a fitted effect of over 55% in size
DT40 TDP1 no CPT: qHTS for Inhibitors of human tyrosyl-DNA phosphodiesterase 1 (TDP1): qHTS in cells in absence of CPT. DT40 Tdp1-/- hTDP1 cells, no CPT, ATP luminescence, 48 h. Potency, µM (top dose mostly 46.2 µM), for the others: at the highest dose activity change, negative = growth inhibition, actives largely listed as inhibitors. hit rate 15% among 420,000; note: potency is the fitted concentration of half-maximal effect; % is set by controls: 0 for no effect and ±100 for the full control effect; nearly all actives have a fitted effect of over 55% in size
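Seeded 400 DT40-hTDP1 cells/well (vehicle DMSO, no 20 nM CPT); pinned compounds; ≥48 hr at 37 °C; CellTiter-Glo luminescence as viability measure.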
miR-21 reporter: raises the signal of a miR-21 reporter. Potency, µM (highest dose often 38.3 µM), without a hit: top-dose reporter change, positive = more light. 340,000 tested, under 10 active. HeLa miR-21 FLuc reporter, luciferase, 48 h; active = well fitted rising curve with a large enough effect; inconclusive = small, poorly fitted or top-dose-only effect; inactive = no such curve, though single readings can be large or run the other way;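 further: % of control where 0% means no effect; miR-21 action dims this reporter so a rising signal means less miR-21 action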
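HeLa cells stably expressing CMV-driven firefly luciferase with a downstream miR-21 binding sequence, endogenously expressing miR-21, were treated with titrations (up to about 40uM final) for 48 hours at 37 degree Celsius. Luciferase luminescence was read after lysis.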
DT40 TDP1 CPT: DT40-hTDP1 cell growth loss with CPT; chicken DT40 Tdp1-/-;hTDP1 cells + 20 nM CPT, ATP luminescence, 48 h; Potency, µM (doses to about 46.2 µM), without a hit: top-dose activity change, negative = growth inhibition, hits mostly inhibitors; hit rate 12% among 420,000; note: potency is the fitted concentration of half-maximal effect; % is set by controls: 0 for no effect and ±100 for the full control effect; nearly all actives have a fitted effect of over 55% in size
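Chicken DT40 Tdp1-/- cells stably complemented with human TDP1 were seeded at 400 cells/well in medium containing 20 nM camptothecin, exposed to pin-transferred compounds, and grown at 37 °C for at least 48 hr. Viability was read as ATP luminescence.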
TDP1 inh: inhibitors of human tyrosyl-DNA phosphodiesterase TDP1 | recombinant TDP1, AlphaScreen DNA substrate cleavage | Potency, µM (doses to about 130 µM), inactives show top-dose activity change, negative = inhibition, actives largely listed as inhibitors | hit rate 0.28% among 350,000 | AID 485290; note: potency is the fitted concentration of half-maximal effect; % is set by controls: 0 for no effect and ±100 for the full control effect; nearly all actives have a fitted effect of over 40% in size
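Steps: enzyme plus compound, 15 min RT; add biotin/phosphotyrosine-FITC oligonucleotide (15 nM final), react 5 min; add donor/acceptor beads (10 ug/ml final), 10 min; read AlphaScreen. Tdp1 at 1 nM final.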
* = called active by the depositor; ? = inconclusive; nt = not tested or not shown; [ ] = dose if it differs, or a comment. Unless noted, calls come from the whole dose curve; as a rule, active = well fitted curve in the direction sought with a large enough effect; inconclusive = small, poorly fitted or top-dose-only effect, or another doubt; inactive = no such curve, though single readings can be large; an effect the other way counts as inactive or inconclusive.

SMILES | uPA generation | DT40 TDP1 no CPT | miR-21 reporter | DT40 TDP1 CPT | TDP1 inh
COc1ccc2[nH]c(=O)c(CN(CC3CCCO3)C(=O)Nc3ccccc3OC)cc2c1 (stereo unspecified) | -12% | 10µM* | 29% | 13µM* | 0%
CCc1ccc2[nH]c(=O)c(CN(Cc3ccccc3OC)C(=O)Nc3ccccc3OC)cc2c1 | nt | 23µM* | -2% | 18µM* | 7%
CCN(CC)CCN(Cc1cc2cc(C)ccc2[nH]c1=O)C(=O)Nc1ccccc1OC | 1% | ? | -5% | ? | 2%
CCOC(=O)c1c(NC(=O)CCCOc2ccc(C(C)(C)C)cc2)sc2c1CCC2 | nt | 4% | -1% | -16% | -15%[12.3 µM]
Cc1cc(N/N=C2\CC(C)CC(C)(C)C2)nc2ccccc12 (stereo unspecified) | 8% | ? | -32% | ? | 7%
CCCCn1nnnc1C(c1cc2ccccc2o1)N1CCN(CCN(C)C)CC1 (stereo unspecified) | nt | 21µM* | nt | ? | nt
Cc1cccc(C)c1N1CCN(C(c2cc3ccccc3o2)c2nnnn2C(C)(C)C)CC1 (stereo unspecified) | nt | ? | nt | 15µM* | nt
CCCCn1nnnc1C(c1cc2ccccc2o1)N1CCN(CC(=O)NC(C)C)CC1 (stereo unspecified) | nt | ? | nt | -18% | nt
CC(C)NC(=O)CN1CCN(C(c2cc3ccccc3o2)c2nnnn2C(C)(C)C)CC1 (stereo unspecified) | nt | -16% | nt | -15% | nt
CCCCn1nnnc1C(c1cc2ccccc2o1)N1CCN(c2c(C)cccc2C)CC1 (stereo unspecified) | nt | 18µM* | nt | ? | nt
CCCCn1nnnc1C(c1cc2ccccc2o1)N1CCN(c2ccncc2)CC1 (stereo unspecified) | nt | 23µM* | nt | 21µM* | nt
Oc1ccc(N2CCN(C(c3cccs3)c3nnnn3CCc3ccccc3)CC2)cc1 (stereo unspecified) | -11% | ? | -8% | ? | 7%
CCOC(=O)C1(CCOC)CCN(C(=O)c2ccccc2-c2cccc(C)c2)CC1 | -6% | ? | -1% | ? | -8%
COCC(=O)Nc1cc([N+](=O)[O-])ccc1OC | 5% | 1% | -4% | 7% | 5%
CCOC(=O)N(C)C[C@@H]1OCc2cnnn2CCCC(=O)N([C@@H](C)CO)C[C@@H]1C | nt | -11% | nt | 1% | nt

Molecules listed so far that have an NH in an aromatic ring (3):
SMILES | uPA generation | DT40 TDP1 no CPT | miR-21 reporter | DT40 TDP1 CPT | TDP1 inh
COc1ccc2[nH]c(=O)c(CN(CC3CCCO3)C(=O)Nc3ccccc3OC)cc2c1 (stereo unspecified) | -12% | 10µM* | 29% | 13µM* | 0%
CCc1ccc2[nH]c(=O)c(CN(Cc3ccccc3OC)C(=O)Nc3ccccc3OC)cc2c1 | nt | 23µM* | -2% | 18µM* | 7%
CCN(CC)CCN(Cc1cc2cc(C)ccc2[nH]c1=O)C(=O)Nc1ccccc1OC | 1% | ? | -5% | ? | 2%

Next structures follow.
SMILES | uPA generation | DT40 TDP1 no CPT | miR-21 reporter | DT40 TDP1 CPT | TDP1 inh
COc1ccc(NCc2nnc(-c3ccccc3)o2)cc1 | ? | -23% | -24% | -25% | 6%
Cc1noc(C)c1C(=O)N1CCN(S(=O)(=O)c2cccs2)CC1 | 16% | 0% | nt | -1% | nt
CCc1nc(N2CCN(C(C)=O)CC2)c2c3c(sc2n1)CC(C(C)(C)C)CC3 (stereo unspecified) | 0% | 12µM* | -5% | ? | nt
CCc1nc(N2CCN(C(=O)CCl)CC2)c2c3c(sc2n1)CC(C)CC3 (stereo unspecified) | -14% | 6.5µM* | ? | 3.3µM* | 6%
COC(=O)c1c(C(C)=O)c(C)n(C)c1C | 5% | -2% | -3% | -4% | 0%
Cc1cc(Br)ccc1NC(=O)c1cn(C2CCCC2)c(=O)c2c1c1ccccc1n2C | nt | ? | -4% | -27% | 2%
COc1cccc(NC(=O)c2cn(C3CCCCC3)c(=O)c3c2c2ccccc2n3C)c1 | nt | ? | 11% | -24% | -8%
COc1cc(OC)c(N(C)C(=O)c2cn(C3CCCC3)c(=O)c3c2c2ccccc2n3C)cc1Cl | nt | 8.2µM* | ? | 10µM* | 5%
COc1cc(Cl)c(C)cc1NC(=O)c1cn(C2CCCC2)c(=O)c2c1c1ccccc1n2C | nt | ? | -1% | 0.65µM* | -2%[12.3 µM]
O=C(Oc1cccc2c(O)cccc12)c1ccco1 | 1% | 12µM* | nt | 21µM* | nt
COc1cc(C(=O)NCC2(N(C)C)CCCCC2)ccc1OCc1ccccc1 | -5% | ? | 4% | 9% | -2%
O=C(CNC(=O)Cn1ccc2ccccc2c1=O)NCCCN1CCN(c2cccc(Cl)c2)CC1 | 2% | 26µM* | 9% | ? | 7%
Cn1cc(CC(=O)N2CCN(c3ccc(Cl)cc3)CC2)c2ccccc21 | -4% | 13µM* | -6% | ? | 9%

Assay outcomes (PubChem)
